Test [1] addresses Nitric oxide synthase, inducible (Homo sapiens, UniProt P35228). Kind of test: Inhibition of NOS2.
Another test concerns the target Nitric oxide synthase 1 (Homo sapiens, UniProt P29475).

By UniProt entry, the sequences of proteins in these tests, tags left out.
UniProt P35228, whole entry, looked up: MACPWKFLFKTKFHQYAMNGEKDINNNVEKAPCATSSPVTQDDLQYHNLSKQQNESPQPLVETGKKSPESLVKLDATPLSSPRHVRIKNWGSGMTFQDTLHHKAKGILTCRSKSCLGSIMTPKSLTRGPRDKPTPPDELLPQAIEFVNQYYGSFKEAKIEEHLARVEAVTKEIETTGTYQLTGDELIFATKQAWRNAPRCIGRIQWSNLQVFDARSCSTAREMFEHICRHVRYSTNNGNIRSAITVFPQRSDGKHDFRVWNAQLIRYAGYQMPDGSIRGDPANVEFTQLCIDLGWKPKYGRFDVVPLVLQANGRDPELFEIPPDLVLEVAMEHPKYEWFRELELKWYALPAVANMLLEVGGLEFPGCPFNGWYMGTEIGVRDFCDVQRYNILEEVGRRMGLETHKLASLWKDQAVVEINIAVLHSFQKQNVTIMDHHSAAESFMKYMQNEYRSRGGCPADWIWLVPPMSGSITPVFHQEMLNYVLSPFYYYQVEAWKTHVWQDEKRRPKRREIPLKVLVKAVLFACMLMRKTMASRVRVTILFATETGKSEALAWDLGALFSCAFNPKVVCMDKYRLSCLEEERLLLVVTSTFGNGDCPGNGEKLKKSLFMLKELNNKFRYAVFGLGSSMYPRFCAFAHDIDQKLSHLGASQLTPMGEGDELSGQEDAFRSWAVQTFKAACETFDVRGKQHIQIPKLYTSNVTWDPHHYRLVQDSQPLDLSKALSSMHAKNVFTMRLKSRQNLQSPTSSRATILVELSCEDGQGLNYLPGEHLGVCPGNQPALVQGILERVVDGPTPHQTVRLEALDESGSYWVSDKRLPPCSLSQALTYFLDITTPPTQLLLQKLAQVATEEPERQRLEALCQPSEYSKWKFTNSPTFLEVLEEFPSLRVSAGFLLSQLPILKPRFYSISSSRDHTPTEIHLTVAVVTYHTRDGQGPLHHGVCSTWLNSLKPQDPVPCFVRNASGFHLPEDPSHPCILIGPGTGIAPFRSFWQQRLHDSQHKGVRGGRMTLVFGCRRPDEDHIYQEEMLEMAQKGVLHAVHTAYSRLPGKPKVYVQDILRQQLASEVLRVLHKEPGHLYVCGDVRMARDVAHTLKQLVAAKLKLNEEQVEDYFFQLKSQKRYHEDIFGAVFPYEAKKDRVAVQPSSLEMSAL
UniProt P29475, whole entry, looked up: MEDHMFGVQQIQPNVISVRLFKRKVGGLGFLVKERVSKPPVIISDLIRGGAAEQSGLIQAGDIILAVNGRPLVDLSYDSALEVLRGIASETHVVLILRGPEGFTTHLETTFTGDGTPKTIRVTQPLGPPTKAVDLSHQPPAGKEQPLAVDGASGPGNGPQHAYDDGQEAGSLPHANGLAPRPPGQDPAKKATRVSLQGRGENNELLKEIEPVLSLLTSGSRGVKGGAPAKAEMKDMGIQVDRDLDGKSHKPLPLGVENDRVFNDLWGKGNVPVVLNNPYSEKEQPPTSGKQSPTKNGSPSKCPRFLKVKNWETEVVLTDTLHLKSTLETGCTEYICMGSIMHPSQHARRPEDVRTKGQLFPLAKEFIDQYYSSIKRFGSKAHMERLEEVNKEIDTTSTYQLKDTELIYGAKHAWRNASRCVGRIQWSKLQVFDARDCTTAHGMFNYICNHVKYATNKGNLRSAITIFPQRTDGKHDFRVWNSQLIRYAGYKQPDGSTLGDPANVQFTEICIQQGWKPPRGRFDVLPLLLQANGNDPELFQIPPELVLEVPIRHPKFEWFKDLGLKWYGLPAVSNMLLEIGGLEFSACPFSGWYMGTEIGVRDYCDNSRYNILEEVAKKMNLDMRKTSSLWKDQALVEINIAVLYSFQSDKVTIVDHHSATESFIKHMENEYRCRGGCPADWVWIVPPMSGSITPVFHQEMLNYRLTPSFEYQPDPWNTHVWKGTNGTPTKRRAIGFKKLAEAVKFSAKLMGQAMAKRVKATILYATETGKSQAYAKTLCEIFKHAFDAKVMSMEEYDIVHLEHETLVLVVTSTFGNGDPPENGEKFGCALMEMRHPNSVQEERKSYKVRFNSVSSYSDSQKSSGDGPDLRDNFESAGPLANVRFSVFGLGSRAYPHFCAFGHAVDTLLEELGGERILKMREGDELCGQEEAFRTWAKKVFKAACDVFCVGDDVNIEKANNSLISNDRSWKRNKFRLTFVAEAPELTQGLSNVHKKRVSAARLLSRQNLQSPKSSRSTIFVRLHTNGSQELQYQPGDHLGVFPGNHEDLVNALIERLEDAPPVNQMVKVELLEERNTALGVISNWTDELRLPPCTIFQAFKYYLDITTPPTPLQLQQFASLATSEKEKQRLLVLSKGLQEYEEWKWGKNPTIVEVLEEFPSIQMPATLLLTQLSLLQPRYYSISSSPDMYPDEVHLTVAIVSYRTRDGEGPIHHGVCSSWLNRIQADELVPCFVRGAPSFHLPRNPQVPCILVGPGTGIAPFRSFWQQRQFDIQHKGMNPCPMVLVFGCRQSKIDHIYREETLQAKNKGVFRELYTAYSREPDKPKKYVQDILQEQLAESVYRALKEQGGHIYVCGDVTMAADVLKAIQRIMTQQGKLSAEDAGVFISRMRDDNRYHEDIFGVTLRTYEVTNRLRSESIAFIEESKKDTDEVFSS

Structures are written as SMILES.

The term IC50 denotes the point on the concentration scale where inhibition reaches its midpoint. A lower IC50 goes with higher potency. Consider `O=[N+]([O-])c1cccc2cn([N+](=O)[O-])nc12`, for which the half-inhibitory concentration (IC50) is 3200 nM in test [1] and 620 nM at Nitric oxide synthase 1.

(Values after ChEMBL document CHEMBL1152545, “Fluorinated indazoles as novel selective inhibitors of nitric oxide synthase (NOS): synthesis and biological evaluation” (Bioorg Med Chem, 2009).)
